Literature values, collected in patent US20090317456A1, “USE OF ONCOLYTIC VIRUSES AND ANTIANGIOGENIC AGENTS IN THE TREATMENT OF CANCER” (priority 2006, published 2009).

By UniProt entry, the sequences of proteins in these tests, tags left out. Residues count along the entry.
UniProt P10721, 26-976: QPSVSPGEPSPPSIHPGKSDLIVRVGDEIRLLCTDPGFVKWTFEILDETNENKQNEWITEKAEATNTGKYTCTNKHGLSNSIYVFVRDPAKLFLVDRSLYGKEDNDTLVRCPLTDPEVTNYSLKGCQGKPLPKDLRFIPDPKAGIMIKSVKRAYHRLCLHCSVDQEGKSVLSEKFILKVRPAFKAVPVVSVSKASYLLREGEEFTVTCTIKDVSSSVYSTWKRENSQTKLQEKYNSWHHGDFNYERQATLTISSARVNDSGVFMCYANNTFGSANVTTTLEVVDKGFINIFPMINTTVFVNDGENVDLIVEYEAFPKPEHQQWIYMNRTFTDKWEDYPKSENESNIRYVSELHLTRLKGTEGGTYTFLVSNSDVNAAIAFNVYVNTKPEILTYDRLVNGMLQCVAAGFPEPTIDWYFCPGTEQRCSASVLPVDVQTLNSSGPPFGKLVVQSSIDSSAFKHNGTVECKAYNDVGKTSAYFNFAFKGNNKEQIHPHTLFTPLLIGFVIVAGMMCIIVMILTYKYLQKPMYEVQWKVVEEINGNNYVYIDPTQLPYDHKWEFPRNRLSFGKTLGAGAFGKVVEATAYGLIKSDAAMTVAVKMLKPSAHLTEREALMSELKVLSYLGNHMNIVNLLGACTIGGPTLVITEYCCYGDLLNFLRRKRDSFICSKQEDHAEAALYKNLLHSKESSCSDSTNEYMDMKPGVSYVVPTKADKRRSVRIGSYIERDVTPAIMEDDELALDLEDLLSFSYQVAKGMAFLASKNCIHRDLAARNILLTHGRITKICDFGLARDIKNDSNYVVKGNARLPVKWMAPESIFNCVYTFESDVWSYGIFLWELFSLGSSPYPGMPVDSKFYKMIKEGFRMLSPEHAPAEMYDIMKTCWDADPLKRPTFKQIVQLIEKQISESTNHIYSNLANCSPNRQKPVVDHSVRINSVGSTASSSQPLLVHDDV

Biological target: c-kit (Homo sapiens, UniProt P10721)

SMILES: Clc1ccc(Nc2nnc(Cc3ccncc3)c3ccccc23)cc1 [PTK 787/ZK 222584]
- inhibition of c-kit: nanomolar range
